In US11634381B2, “RUNX2 transcription factor inhibitors and uses thereof” (University of Maryland, Baltimore, priority 2015, dated 2023) one finds tumorsphere size data, which are given here for 1 substance.

The test system of the experiment is MCF7 RUNX2 Tet.OFF cells. The experiment in a line: Suspension culture tumorsphere formation. Format: cell-based, human. The settings on record: 10 μg/mL Herceptin, 10 days. The method, then: MCF7 Tet.OFF cells were grown in the presence (+Dox, RUNX2 negative) or absence (−Dox, RUNX2 positive) of doxycycline for 3 days. Cells were then scraped and counted. 60,000 cells were plated in each well of a 6-well ultra-low attachment plate (Corning; 3471) in Promocell Basal Medium (Promocell; c-22211) complete with Supplement Mix (Promocell; c-39216). Cells were then treated with or without 2 ng/mL TGFβ (R&D Systems; 240-B-002). After growth for 10-15 days, wells were photographed and tumorsphere diameters were measured from photographic images (mm). Colony diameters were calculated using the formula: (L+W)/2. Representative photographs were obtained at 4× magnification. […] For TAZ siRNA knockdown experiments, TAZ siRNA was transfected (as below) into MCF7 Tet.OFF cells and 24 hr later cells were scraped and placed into suspension as described above. Small-Interfering RNA (siRNA) pool targeting RUNX1, RUNX2, and non-targeting control were purchased from Dharmacon, and transfected into cells using RNAiMAX Reagent (Invitrogen). Western blot analysis was performed 48 hrs after transfection.

On to “Herceptin: monoclonal antibody that binds the extracellular domain of HER2”, for which the tumorsphere size (RUNX2 negative cells) worked out at 7.2±3.27 mm and the tumorsphere size (RUNX2 positive cells, TGFβ) came out at 5.76±2.83 mm.
